Results from patent publication US7115661B1, “Methods and compositions for mitigating pain” (dated 2006).
Where two headings read alike, the source gives them in different places.

Sequences of proteins named here, by UniProt entry; tags and fusion partners are left off. A change or cut given only in a name is not applied to a line headed by its entry. Residues count along the entry.
UniProt P20595: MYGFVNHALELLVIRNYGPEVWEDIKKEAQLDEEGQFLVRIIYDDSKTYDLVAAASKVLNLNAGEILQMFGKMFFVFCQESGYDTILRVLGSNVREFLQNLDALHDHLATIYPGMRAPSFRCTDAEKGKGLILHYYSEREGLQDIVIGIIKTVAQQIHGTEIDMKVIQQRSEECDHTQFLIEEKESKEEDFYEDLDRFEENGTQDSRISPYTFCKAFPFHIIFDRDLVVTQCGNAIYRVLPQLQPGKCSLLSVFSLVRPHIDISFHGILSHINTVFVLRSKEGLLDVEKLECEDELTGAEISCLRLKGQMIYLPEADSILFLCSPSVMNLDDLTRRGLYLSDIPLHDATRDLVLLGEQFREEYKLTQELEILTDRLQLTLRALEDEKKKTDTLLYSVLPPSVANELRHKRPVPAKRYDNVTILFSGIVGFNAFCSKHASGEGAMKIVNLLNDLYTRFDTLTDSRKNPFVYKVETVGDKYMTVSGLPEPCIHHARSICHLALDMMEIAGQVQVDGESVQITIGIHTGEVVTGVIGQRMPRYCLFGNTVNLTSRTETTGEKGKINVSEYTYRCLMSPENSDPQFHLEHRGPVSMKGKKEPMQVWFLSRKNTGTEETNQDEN
UniProt P14867, 28-456 limits assumed: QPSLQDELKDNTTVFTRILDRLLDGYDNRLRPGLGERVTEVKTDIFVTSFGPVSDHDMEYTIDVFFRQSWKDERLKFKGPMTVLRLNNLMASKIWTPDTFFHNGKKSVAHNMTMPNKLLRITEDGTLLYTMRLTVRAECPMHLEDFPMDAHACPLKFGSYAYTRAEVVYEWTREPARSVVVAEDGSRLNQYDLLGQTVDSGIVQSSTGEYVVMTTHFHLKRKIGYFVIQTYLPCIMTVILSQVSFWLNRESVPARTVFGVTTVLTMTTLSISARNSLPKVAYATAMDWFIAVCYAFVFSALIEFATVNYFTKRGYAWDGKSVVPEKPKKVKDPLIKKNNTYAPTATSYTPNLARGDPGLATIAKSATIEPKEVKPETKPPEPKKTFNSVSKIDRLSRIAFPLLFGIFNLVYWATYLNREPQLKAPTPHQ
UniProt P18505, 26-474 limits assumed: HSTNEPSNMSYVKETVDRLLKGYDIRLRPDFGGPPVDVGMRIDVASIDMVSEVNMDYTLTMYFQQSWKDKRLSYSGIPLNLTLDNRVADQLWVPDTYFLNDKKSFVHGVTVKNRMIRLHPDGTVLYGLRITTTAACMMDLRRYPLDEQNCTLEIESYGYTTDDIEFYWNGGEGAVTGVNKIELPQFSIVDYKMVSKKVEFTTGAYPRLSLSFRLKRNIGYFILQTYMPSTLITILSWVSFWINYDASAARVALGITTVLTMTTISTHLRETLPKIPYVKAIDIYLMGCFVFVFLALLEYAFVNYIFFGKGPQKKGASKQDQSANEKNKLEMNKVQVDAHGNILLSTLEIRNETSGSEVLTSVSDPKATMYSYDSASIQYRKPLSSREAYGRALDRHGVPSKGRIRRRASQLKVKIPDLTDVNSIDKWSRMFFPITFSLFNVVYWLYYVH
UniProt P18507, 40-475 limits assumed: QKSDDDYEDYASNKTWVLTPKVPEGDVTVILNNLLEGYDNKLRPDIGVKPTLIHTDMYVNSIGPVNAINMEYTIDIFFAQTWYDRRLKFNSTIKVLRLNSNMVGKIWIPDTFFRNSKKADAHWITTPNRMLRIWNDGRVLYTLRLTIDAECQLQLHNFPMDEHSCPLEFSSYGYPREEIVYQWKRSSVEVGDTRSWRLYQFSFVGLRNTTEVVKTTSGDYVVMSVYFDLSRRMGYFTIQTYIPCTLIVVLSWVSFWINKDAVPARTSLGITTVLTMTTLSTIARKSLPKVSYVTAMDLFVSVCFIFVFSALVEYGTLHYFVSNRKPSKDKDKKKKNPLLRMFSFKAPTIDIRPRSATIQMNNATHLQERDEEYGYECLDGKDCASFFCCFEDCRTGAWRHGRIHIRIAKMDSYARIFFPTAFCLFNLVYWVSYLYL

Assays:
isolated rat aorta = experiment: Cyclic GMP accumulation in intact isolated rat aorta; conditions: 1 min
rat aortic tissue = experiment: Relaxation of isolated rat aorta contracted with phenylephrine; conditions: read-out: EC-50 for relaxation
[1] = molecular target: T1, soluble guanylyl cyclase (GCase) (Rattus norvegicus, UniProt P20595); experiment: Activation of soluble guanylyl cyclase, rat hippocampus homogenate; conditions: for maximal (hipp.), relative to GTN: normalized to GTN + 1 mM cysteine maximal response; for EC50: read-out: EC-50 (hipp.)
[2] = molecular target: T1, soluble guanylyl cyclase (GCase); experiment: Activation of soluble guanylyl cyclase, rat aorta homogenate, radioimmunoassay; conditions: for maximal (aorta), relative to GTN: normalized to GTN + 1 mM cysteine maximal response; for EC50: read-out: EC-50 (aorta); for Activation of GCase in the presence of DTT: DTT 2 mM
[3] = test system: GTN-tolerant isolated rat aorta; experiment: Relaxation of GTN-tolerant isolated rat aorta; conditions: tissue made tolerant with 0.5 mM GTN for 30 min
[4] = molecular target: α1β1γ2L isoform of human recombinant GABAA receptors (Homo sapiens, UniProt P14867+P18505+P18507); experiment: GABA-induced membrane current in Xenopus oocytes, two-electrode voltage clamp; conditions: 200 μM drug, 10 μM GABA, same oocyte
[5] = NO release measured amperometrically; conditions: in the absence nor the presence of cysteine
rats [6] = experiment: Blood pressure in anesthetized rats after bolus intravenous injection; conditions: Va at doses lower than 2 μmol/kg
rats [7] = experiment: Blood pressure in conscious, freely moving rats after subcutaneous injection; conditions: 400 μmol/kg subcutaneously
[8] = rat hippocampus homogenate, L-cysteine 1 mM
[9] = rat aorta homogenate, L-cysteine 1 mM
[10] = rat aorta homogenate, absence of any added thiol

## O=[N+]([O-])OC1CSSCC1O[N+](=O)[O-] (stereo not drawn)
Isolated rat aorta; 1 μM drug
  cyclic GMP accumulation: did not significantly increase
Isolated rat aorta; 10 μM drug
  cyclic GMP accumulation: significantly increased
Rat aortic tissue; another series of experiments
  EC50: 0.0084 µM
[1]; [8]
  Efficacy to stimulate GCase activity compared to GTN: equivalent to GTN
  Potency for activation of GCase compared to GTN: equivalent to GTN
[2]; [9]
  Efficacy to stimulate GCase activity compared to GTN: equivalent to GTN
  Potency for activation of GCase compared to GTN: equivalent to GTN

## COC(=O)c1ccccc1SSCC(CO[N+](=O)[O-])O[N+](=O)[O-] (stereo not drawn)
[1]; 1 mM cysteine absent (−)
  maximal (hipp.), relative to GTN: 2.1
  EC50: 57 µM
[1]; 1 mM cysteine present (+)
  maximal (hipp.), relative to GTN: 5.1
  EC50: 140 µM
[2]; 1 mM cysteine absent (−)
  maximal (aorta), relative to GTN: 1.0
  EC50: 180 µM
[2]; 1 mM cysteine present (+)
  maximal (aorta), relative to GTN: 2.2
  EC50: 180 µM

## O=[N+]([O-])OC1CSSCC1O (stereo not drawn)
Isolated rat aorta; 1 μM drug
  cyclic GMP accumulation: did not significantly increase
Isolated rat aorta; 10 μM drug
  cyclic GMP accumulation: did not
Rat aortic tissue; another series of experiments
  EC50: 0.437 µM

## O=[N+]([O-])OCC(CSS(=O)(=O)O)O[N+](=O)[O-] (stereo not drawn)
[3]
  maximal relaxant effect compared to untreated tissue: not significantly different
[3]; difference not statistically significant
  change of EC-50 for relaxation in tolerant versus untreated tissue: increased approximately threefold
Rat aortic tissue; first series of experiments
  EC50: 6.59 µM
[2]; rat aorta homogenate
  Activation of GCase in the presence of DTT: activates GCase
[2]; [10]
  EC-50 for GCase activation: submillimolar

## Cc1ncsc1CCCl
[4]
  potentiation of the control GABA response: substantially potentiated

## Cc1cc(=O)oc2cc(SSCC(CO[N+](=O)[O-])O[N+](=O)[O-])ccc12 (stereo not drawn)
[1]; 1 mM cysteine absent (−)
  maximal (hipp.), relative to GTN: 1.8
  EC50: 17 µM
[1]; 1 mM cysteine present (+)
  maximal (hipp.), relative to GTN: 3.0
  EC50: 51 µM
[2]; 1 mM cysteine absent (−)
  maximal (aorta), relative to GTN: 1.7
  EC50: 1.8 µM
[2]; 1 mM cysteine present (+)
  maximal (aorta), relative to GTN: 2.3
  EC50: 65 µM

## O=[N+]([O-])OCC(CO[N+](=O)[O-])O[N+](=O)[O-]
[5]
  NO release at a rate measurable amperometrically: does not release NO at a rate measurable amperometrically
Isolated rat aorta; 1 μM drug
  cyclic GMP accumulation: significantly increased
Isolated rat aorta; 10 μM drug
  cyclic GMP accumulation: significantly increased
Rats [6]
  effect on arterial blood pressure: substantial and dose-dependent decrease
Rats [7]
  effect on arterial blood pressure: small and transient decrease
[2]; rat aorta homogenate
  Activation of GCase in the presence of DTT: does not
[2]; [10]
  Activation of GCase without added thiol: requires added cysteine
